Source: publication PMC8532158

Experiments:
Experiment in all cases: yeast surface display affinity sorting with deep sequencing, enrichments normalized to ddG of purified proteins
[1] = molecular target: bovine trypsin (Bos taurus) (UniProt P00760)
[2] = molecular target: bovine alpha-chymotrypsin (Bos taurus) (UniProt P00766)
[3] = molecular target: human mesotrypsin (Homo sapiens) (UniProt P35030)

| ddG [1] | ddG [2] | ddG [3] | Substance |
| --- | --- | --- | --- |
| 9.65 kcal/mol | 3.29 kcal/mol | 1.39 kcal/mol | A16C (from UniProt P00974) |
| 9.13 kcal/mol | 3.87 kcal/mol | 1.13 kcal/mol | A16D (from UniProt P00974) |
| 8.65 kcal/mol | 3.45 kcal/mol | 1.57 kcal/mol | A16E (from UniProt P00974) |
| 10.1 kcal/mol | 3.99 kcal/mol | 1.78 kcal/mol | A16F (from UniProt P00974) |
| 3.6 kcal/mol | 1.51 kcal/mol | 0.77 kcal/mol | A16G (from UniProt P00974) |
| 8.84 kcal/mol | 3.8 kcal/mol | 1.51 kcal/mol | A16H (from UniProt P00974) |
| 5.09 kcal/mol | 3.79 kcal/mol | 1.35 kcal/mol | A16I (from UniProt P00974) |
| 9.83 kcal/mol | 4.54 kcal/mol | 1.39 kcal/mol | A16K (from UniProt P00974) |
| 8.02 kcal/mol | 4.8 kcal/mol | 1.85 kcal/mol | A16L (from UniProt P00974) |
| 3.96 kcal/mol | 3.66 kcal/mol | 1.93 kcal/mol | A16M (from UniProt P00974) |
| 8.97 kcal/mol | 4.1 kcal/mol | 1.31 kcal/mol | A16N (from UniProt P00974) |
| 9.01 kcal/mol | 4.32 kcal/mol | 1.53 kcal/mol | A16P (from UniProt P00974) |
| 6.73 kcal/mol | 3.43 kcal/mol | 1.62 kcal/mol | A16Q (from UniProt P00974) |
| 4.65 kcal/mol | 4.36 kcal/mol | 1.94 kcal/mol | A16R (from UniProt P00974) |
| 4.5 kcal/mol | 3.51 kcal/mol | 1.65 kcal/mol | A16S (from UniProt P00974) |
| 4.85 kcal/mol | 1.96 kcal/mol | 0.994 kcal/mol | A16T (from UniProt P00974) |
| 4.63 kcal/mol | 3.65 kcal/mol | 2.14 kcal/mol | A16V (from UniProt P00974) |
| 8.95 kcal/mol | 3.77 kcal/mol | 1.82 kcal/mol | A16W (from UniProt P00974) |
| 8.04 kcal/mol | 3.72 kcal/mol | 0.415 kcal/mol | A16Y (from UniProt P00974) |
| 3.36 kcal/mol | 0.928 kcal/mol | 1.2 kcal/mol | G12A (from UniProt P00974) |
| 6.81 kcal/mol | 3.31 kcal/mol | 1.24 kcal/mol | G12C (from UniProt P00974) |
| 4.71 kcal/mol | 3.53 kcal/mol | 1.24 kcal/mol | G12D (from UniProt P00974) |

| ddG [1] | ddG [2] | ddG [3] | Substance |
| --- | --- | --- | --- |
| 4.87 kcal/mol | 4.36 kcal/mol | 1.92 kcal/mol | G12E (from UniProt P00974) |
| 2.59 kcal/mol | 3.15 kcal/mol | -0.173 kcal/mol | G12F (from UniProt P00974) |
| 4.53 kcal/mol | 3.25 kcal/mol | 1.78 kcal/mol | G12H (from UniProt P00974) |
| 2.51 kcal/mol | 3.68 kcal/mol | 1.47 kcal/mol | G12I (from UniProt P00974) |
| 4.95 kcal/mol | 2.84 kcal/mol | 2.47 kcal/mol | G12K (from UniProt P00974) |
| 3.65 kcal/mol | 4.33 kcal/mol | 0.11 kcal/mol | G12L (from UniProt P00974) |
| 4.26 kcal/mol | 2.37 kcal/mol | 0.602 kcal/mol | G12M (from UniProt P00974) |
| 4.36 kcal/mol | 0.542 kcal/mol | 1.73 kcal/mol | G12N (from UniProt P00974) |
| 3.71 kcal/mol | 3.66 kcal/mol | 0.0908 kcal/mol | G12P (from UniProt P00974) |
| 4.07 kcal/mol | 3.78 kcal/mol | 1.49 kcal/mol | G12Q (from UniProt P00974) |
| 4.32 kcal/mol | 3.87 kcal/mol | 1.5 kcal/mol | G12R (from UniProt P00974) |
| 3.09 kcal/mol | 0.505 kcal/mol | 0.878 kcal/mol | G12S (from UniProt P00974) |
| 3.86 kcal/mol | 4.81 kcal/mol | 2.39 kcal/mol | G12T (from UniProt P00974) |
| 3.24 kcal/mol | 3.63 kcal/mol | 1.62 kcal/mol | G12V (from UniProt P00974) |
| 2.49 kcal/mol | 4.11 kcal/mol | -0.643 kcal/mol | G12W (from UniProt P00974) |
| 3.77 kcal/mol | 3.98 kcal/mol | -0.172 kcal/mol | G12Y (from UniProt P00974) |
| 3.14 kcal/mol | 0.627 kcal/mol | 1.87 kcal/mol | G36A (from UniProt P00974) |
| 9.1 kcal/mol | 3.42 kcal/mol | 2.21 kcal/mol | G36C (from UniProt P00974) |
| 4.57 kcal/mol | 4.17 kcal/mol | 1.62 kcal/mol | G36D (from UniProt P00974) |
| 7.66 kcal/mol | 3.18 kcal/mol | 1.58 kcal/mol | G36E (from UniProt P00974) |
| 3.3 kcal/mol | 3.29 kcal/mol | 2.19 kcal/mol | G36F (from UniProt P00974) |
| 4.26 kcal/mol | 2.95 kcal/mol | 2.42 kcal/mol | G36H (from UniProt P00974) |

| ddG [1] | ddG [2] | ddG [3] | Substance |
| --- | --- | --- | --- |
| 8.79 kcal/mol | 5.3 kcal/mol | 1.99 kcal/mol | G36I (from UniProt P00974) |
| 4.63 kcal/mol | 3.4 kcal/mol | 2.19 kcal/mol | G36K (from UniProt P00974) |
| 7.69 kcal/mol | 4.56 kcal/mol | 1.9 kcal/mol | G36L (from UniProt P00974) |
| 4.4 kcal/mol | 4.12 kcal/mol | 1.9 kcal/mol | G36M (from UniProt P00974) |
| 4.68 kcal/mol | 4.22 kcal/mol | 2.36 kcal/mol | G36N (from UniProt P00974) |
| 8.35 kcal/mol | 4.71 kcal/mol | 2.04 kcal/mol | G36P (from UniProt P00974) |
| 4.88 kcal/mol | 3.25 kcal/mol | 0.769 kcal/mol | G36Q (from UniProt P00974) |
| 3.54 kcal/mol | 2.77 kcal/mol | 2 kcal/mol | G36R (from UniProt P00974) |
| 3.42 kcal/mol | 0.998 kcal/mol | 2 kcal/mol | G36S (from UniProt P00974) |
| 4.54 kcal/mol | 3.63 kcal/mol | 1.73 kcal/mol | G36T (from UniProt P00974) |
| 6.93 kcal/mol | 3.4 kcal/mol | 1.3 kcal/mol | G36V (from UniProt P00974) |
| 6.11 kcal/mol | 3.4 kcal/mol | 1.26 kcal/mol | G36W (from UniProt P00974) |
| 4.23 kcal/mol | 3.77 kcal/mol | 1.75 kcal/mol | G36Y (from UniProt P00974) |
| 1.47 kcal/mol | 0.493 kcal/mol | -0.0136 kcal/mol | G37A (from UniProt P00974) |
| 7.33 kcal/mol | 2.46 kcal/mol | 1.03 kcal/mol | G37C (from UniProt P00974) |
| 7.4 kcal/mol | 2.92 kcal/mol | 1.59 kcal/mol | G37D (from UniProt P00974) |
| 7.31 kcal/mol | 4.28 kcal/mol | 2.65 kcal/mol | G37E (from UniProt P00974) |
| 3.37 kcal/mol | 2.99 kcal/mol | 0.00167 kcal/mol | G37F (from UniProt P00974) |
| 3.53 kcal/mol | 0.754 kcal/mol | -0.0769 kcal/mol | G37H (from UniProt P00974) |
| 6.41 kcal/mol | 3.83 kcal/mol | 1.2 kcal/mol | G37I (from UniProt P00974) |
| 3.41 kcal/mol | 0.426 kcal/mol | -0.238 kcal/mol | G37K (from UniProt P00974) |
| 1.95 kcal/mol | 0.504 kcal/mol | -0.0391 kcal/mol | G37L (from UniProt P00974) |

| ddG [1] | ddG [2] | ddG [3] | Substance |
| --- | --- | --- | --- |
| 1.36 kcal/mol | 0.482 kcal/mol | -1.07 kcal/mol | G37M (from UniProt P00974) |
| 2.1 kcal/mol | 0.36 kcal/mol | 0.165 kcal/mol | G37N (from UniProt P00974) |
| 10.9 kcal/mol | 4.27 kcal/mol | 1.99 kcal/mol | G37P (from UniProt P00974) |
| 3.9 kcal/mol | 2.64 kcal/mol | 1.53 kcal/mol | G37Q (from UniProt P00974) |
| 3.4 kcal/mol | 0.363 kcal/mol | 1.32 kcal/mol | G37R (from UniProt P00974) |
| 3.01 kcal/mol | 3.32 kcal/mol | 1.78 kcal/mol | G37S (from UniProt P00974) |
| 4 kcal/mol | 4.57 kcal/mol | 1.86 kcal/mol | G37T (from UniProt P00974) |
| 5.68 kcal/mol | 3.38 kcal/mol | 0.951 kcal/mol | G37V (from UniProt P00974) |
| 5.24 kcal/mol | 3.06 kcal/mol | 1.16 kcal/mol | G37W (from UniProt P00974) |
| 4.18 kcal/mol | 2.09 kcal/mol | -0.0902 kcal/mol | G37Y (from UniProt P00974) |
| 5.04 kcal/mol | 1.36 kcal/mol | 2.05 kcal/mol | I18A (from UniProt P00974) |
| 4.95 kcal/mol | 0.414 kcal/mol | -0.00349 kcal/mol | I18C (from UniProt P00974) |
| 4.36 kcal/mol | 3.31 kcal/mol | 1.56 kcal/mol | I18D (from UniProt P00974) |
| 4.14 kcal/mol | 4.38 kcal/mol | 0.908 kcal/mol | I18E (from UniProt P00974) |
| 1.81 kcal/mol | -0.849 kcal/mol | -1.46 kcal/mol | I18F (from UniProt P00974) |
| 4.37 kcal/mol | 2.64 kcal/mol | 2.09 kcal/mol | I18G (from UniProt P00974) |
| 3.4 kcal/mol | 0.699 kcal/mol | 1.37 kcal/mol | I18H (from UniProt P00974) |
| 3.89 kcal/mol | -0.224 kcal/mol | -0.346 kcal/mol | I18K (from UniProt P00974) |
| 3.33 kcal/mol | -0.539 kcal/mol | -0.186 kcal/mol | I18L (from UniProt P00974) |
| 3.24 kcal/mol | -0.461 kcal/mol | -1.03 kcal/mol | I18M (from UniProt P00974) |
